Source: patent publication US4933157A, “Radioiodinated arylaliphatic ether analogues of cholesterol” (The University of Michigan, priority 1988, dated 1990)
Like-named read-outs stand apart in the source and are kept apart here.

Legend:
[1] = Polyacrylamide gel electrophoresis of rat plasma (plasma level studies); assay type: in vivo, female Sprague Dawley rats; details: 24 hours
[2] = guinea pig plasma, IV, 30 min
Procedure: Female Sprague Dawley rats were injected with a radio-iodinated arylaliphatic cholesteryl ether analogue (^125 I) solubilized in a suitable transport agent, such as 2% Tween 20-saline. After a predetermined time period, blood samples were drawn from the rats. The plasma was separated from the red blood cells and mixed with a suitable dye (Sudan Black or Sudan Blue). The plasma samples were then subjected to polyacrylamide gel electrophoresis to separate the various fractions. The radioactivity of the various fractions were measured with a gamma counter. […] The data is expressed as a percent of total radioactivity in the gel.
Guinea pigs have a greater concentration of low density lipoproteins in their blood plasma than rats.

SMILES: CC(C)CCC[C@@H](C)[C@H]1CC[C@H]2[C@@H]3CC=C4C[C@@H](OCc5cccc([125I])c5)CC[C@]4(C)[C@H]3CC[C@]12C [m-Iodobenzyl, m-iodobenzyl cholesteryl ether]
- Gel fraction: LDL Band [1]: 31.2 ± 4.0 % OF TOTAL RADIOACTIVITY IN GEL
- Gel fraction: LDL Band [2]: 32.5 ± 4.2 % OF TOTAL RADIOACTIVITY IN GEL
